This is a sample that favours compounds with a hit; in the whole collection about 2.8% have one here.
PGC1a acetyl inh: inhibitors of PGC1a acetylation signal, primary screen, cell-based, U2OS, AlphaScreen, inhibitor mode; AID 651687, 2012; AlphaScreen anti-acetyl-lysine; with virally co-expressed GCN5 acetyltransferase; inhibition, % at 15.6 µM; hit rate 0.17% among 350,000;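 active = every replicate shows inhibition of at least 40%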;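 note: 0% = neutral control wells and 100% = positive control wells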
C2C12 statin: suppressors of statin myotoxicity in C2C12 myotubes, primary screen, cell-based, single point, plate reader | C2C12 myotubes + simvastatin, ATP luminescence, 48 h; scaled: DMSO 0, geranylgeraniol control 100 | rescue of ATP level, % at 7.49 µM | hit rate 0.78% among 330,000;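 active = mean ATP rescue above about 67%, or every replicate alone reaching that limit, limit read from the data, passing the limit was not always enough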;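 note: myotubes were challenged with 10 µM simvastatin during compound exposure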
esBAF inh: Bmi1 luciferase reporter increase in mESCs, primary screen, esBAF inhibitor project, mouse ES cells, Bmi1 luciferase knock-in, single point; reporter increase, % at 12.5 µM; hit rate 2% among 350,000; 24 h; 100% = twice the neutral-well signal; in the data active = activation above about 40%;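 note: 0% = median of the plate's neutral control wells and 100% = double that signal; a rise in the Bmi1 reporter signal indicates esBAF inhibition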
UUG fidelity: modulators of start codon recognition fidelity in yeast; AID 602363; activity score, % at 18.7 µM; S. cerevisiae UUG-firefly luciferase reporter, luminescence/redox ratio; 0.13% of 350,000 active;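 active = replicate mean at a twofold rise or more, about +100% in these data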;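 note: firefly luciferase made from a UUG start codon reports start codon fidelity; reporter light over untreated wells divided by growth signal over untreated wells; some hits fall short of that in this replicate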
E-selectin induc: E-selectin induction in HUVECs, primary screen, imaging, HUVEC, immunofluorescence imaging, single point; normalized: neutral wells 0, TNF-alpha wells 100; P16581; hit rate 0.37% among 260,000; activation, % at 7.58 µM;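 active = mean E-selectin-positive cell signal at least 10% of the positive control, reached in at least 60% of replicates, without over 20% cell loss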
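Material: HUVEC primary endothelial cells; Amount: 3,000 cells per well; Dosing: single concentration; Medium: EGM-2 growth medium on 0.1% gelatin-coated wells; Read-out basis: percent E-selectin-positive cells; Signal: immunofluorescence imaging; Control set: TNF-alpha, DMSO.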
PglD inh: C. jejuni PglD acetyltransferase inhibitors, primary screen, biochemical, DTNB colorimetric, single point | UDP-N-acetylbacillosamine N-acetyltransferase PglD (Campylobacter jejuni) | purified PglD enzyme, DTNB colorimetric CoA detection | hit rate 0.098% among 360,000 | inhibition, % at 12.5 µM | AID 602405, 2012; in the data active = inhibition above about 16%, passing the limit was not always enough
Starred values were filed as active, the others as inactive.

For COc1ccc(NC(=O)c2cc3n(n2)C(C(F)(F)F)CC(c2ccc(OC)cc2)N3)cc1 (stereo not drawn) the results were PGC1a acetyl inh 2, C2C12 statin -28, esBAF inh -4, UUG fidelity -18 and PglD inh 1.
`COc1ccc(C2CC(C(F)(F)F)n3nc(C(=O)NCCN4CCOCC4)cc3N2)cc1` (stereo not drawn) gave PGC1a acetyl inh -1, C2C12 statin 90*, esBAF inh -3, UUG fidelity -22 and PglD inh 5.
Nc1nnc(COc2ccc(Br)cc2Br)s1 was read as PGC1a acetyl inh 3, C2C12 statin 10, esBAF inh 69*, UUG fidelity -27 and PglD inh -1.
`O=C(NCc1ccc(F)cc1)[C@@H]1[C@@H](CO)[C@@H]2Cn3c(ccc(C4=CCCCC4)c3=O)[C@H]1N2` gave C2C12 statin 21, esBAF inh -4, E-selectin induc 0 and PglD inh 2.
CCC(=O)N(C)C[C@H]1Oc2cc(C#Cc3ccncc3)ccc2S(=O)(=O)N([C@@H](C)CO)C[C@H]1C was read as PGC1a acetyl inh 14, C2C12 statin 9, esBAF inh -5, UUG fidelity 22, E-selectin induc 0 and PglD inh 5.
Screening COC(=O)C1=CN(Cc2ccc(F)cc2)C=C(C(=O)OC)C1c1ccc(O)c(OC)c1 returned C2C12 statin 20, esBAF inh -8, UUG fidelity 7 and PglD inh -1.
COC(=O)C1=CN(Cc2ccc(OC)c(OC)c2)C=C(C(=O)OC)C1c1cccc(O)c1 was read as PGC1a acetyl inh 74*, C2C12 statin 17, esBAF inh 20, UUG fidelity -13 and PglD inh -2.
S=C1NC(c2ccccc2)=NCN1c1ccccc1 was read as PGC1a acetyl inh -2, C2C12 statin 7, esBAF inh 58*, UUG fidelity 0 and PglD inh 2.
Cc1ccc(C)c(N=Nc2nc3ccccc3n2C)c1 was read as PGC1a acetyl inh 6, C2C12 statin -21, esBAF inh 41*, UUG fidelity -34 and PglD inh 0.
`Cc1ccc(CNc2nc3ccccc3n2C)cc1` gave PGC1a acetyl inh 3, C2C12 statin -11, esBAF inh -38, UUG fidelity -37, E-selectin induc 0 and PglD inh -3.
O=C(NCC[C@H]1CC[C@H](NC(=O)Nc2cc(F)ccc2F)[C@H](CO)O1)Nc1ccc(Cl)cc1 was read as PGC1a acetyl inh 0, C2C12 statin -6, esBAF inh 43*, UUG fidelity 8, E-selectin induc 0 and PglD inh 1.
Screening O=C(CC1CC1)N[C@@H]1CC[C@H](CCNS(=O)(=O)c2ccc(Cl)cc2)O[C@@H]1CO returned PGC1a acetyl inh -12, C2C12 statin -2, esBAF inh 0, UUG fidelity -26, E-selectin induc 0 and PglD inh 3.
Screening O=C(NCC[C@H]1CC[C@@H](NC(=O)Nc2cc(F)ccc2F)[C@H](CO)O1)Nc1ccc(Cl)cc1 returned PGC1a acetyl inh -2, C2C12 statin 0, esBAF inh 25, UUG fidelity 3, E-selectin induc 1 and PglD inh 1.
For Cc1ccc(S(=O)(=O)N[C@@H]2CC[C@H](CCNC(=O)Nc3ccc(Cl)cc3)O[C@@H]2CO)cc1 the results were PGC1a acetyl inh 4, C2C12 statin -5, esBAF inh 15, UUG fidelity 13, E-selectin induc 1 and PglD inh 2.
`O=C(CC1CC1)N[C@H]1CC[C@H](CCNS(=O)(=O)c2ccc(Cl)cc2)O[C@H]1CO` gave PGC1a acetyl inh 53*, C2C12 statin 8, esBAF inh 1, UUG fidelity -7, E-selectin induc 0 and PglD inh -1.

Molecules listed so far with a CF3 group:
For COc1ccc(NC(=O)c2cc3n(n2)C(C(F)(F)F)CC(c2ccc(OC)cc2)N3)cc1 (stereo not drawn) the results were PGC1a acetyl inh 2, C2C12 statin -28, esBAF inh -4, UUG fidelity -18 and PglD inh 1.
`COc1ccc(C2CC(C(F)(F)F)n3nc(C(=O)NCCN4CCOCC4)cc3N2)cc1` (stereo not drawn) gave PGC1a acetyl inh -1, C2C12 statin 90*, esBAF inh -3, UUG fidelity -22 and PglD inh 5.

New compounds follow.
For Cc1ccc(S(=O)(=O)N[C@H]2CC[C@@H](CCNC(=O)Nc3ccc(Cl)cc3)O[C@H]2CO)cc1 the results were PGC1a acetyl inh 7, C2C12 statin -6, esBAF inh 45*, UUG fidelity 0, E-selectin induc 0 and PglD inh 1.
For CN1C[C@@H](O)COC[C@@H]2O[C@H](CC(=O)NC3CCC3)CC[C@H]21 the results were PGC1a acetyl inh 5, C2C12 statin -3, esBAF inh -3, E-selectin induc 0 and PglD inh 2.
CCOC(=O)c1ccc(N(C(=O)c2ccco2)C(C(=O)NC2CCCCC2)c2ccncc2)cc1 (stereo not drawn) was read as PGC1a acetyl inh 1, C2C12 statin 0, esBAF inh 5, UUG fidelity -9, E-selectin induc 35* and PglD inh -1.
COc1ccc(N(C(=O)c2ccco2)C(C(=O)NC2CCCC2)c2ccncc2)cc1 (stereo not drawn) was read as PGC1a acetyl inh 8, C2C12 statin -38, esBAF inh 1, UUG fidelity -14, E-selectin induc 0 and PglD inh -6.
`CCc1ccc(N(C(=O)c2ccco2)C(C(=O)NC2CCCC2)c2cccnc2)cc1` (stereo not drawn) gave C2C12 statin 3, esBAF inh 12 and E-selectin induc 0.
`CC(C)c1ccc(N(C(=O)c2ccco2)C(C(=O)NC2CCCC2)c2ccncc2)cc1` (stereo not drawn) gave C2C12 statin -1, esBAF inh 47*, UUG fidelity -21, E-selectin induc 0 and PglD inh -3.
`CCC(C)c1ccc(N(C(=O)c2ccco2)C(C(=O)NC2CCCC2)c2cccnc2)cc1` (stereo not drawn) gave C2C12 statin 10 and esBAF inh 86*.
For Cc1ccc(S(=O)(=O)N(C)C[C@H]2Oc3ccc(NS(=O)(=O)c4ccccc4)cc3CC(=O)N([C@H](C)CO)C[C@@H]2C)cc1 the results were PGC1a acetyl inh 4, C2C12 statin 31, esBAF inh 0, UUG fidelity -2, E-selectin induc 0 and PglD inh 6.
Screening CO[C@H]1CC[C@@H]2CCN(C)C(=O)[C@@H](C)N(C)C(=O)c3cc(C#N)ccc3OC[C@H]1O2 returned C2C12 statin -17, esBAF inh 3 and E-selectin induc 0.
`C[C@@H]1CN([C@@H](C)CO)C(=O)c2cccc(NS(=O)(=O)c3cn(C)cn3)c2O[C@H]1CN(C)S(=O)(=O)c1cccs1` gave PGC1a acetyl inh 10, C2C12 statin -31, esBAF inh -7, UUG fidelity -20, E-selectin induc 0 and PglD inh 1.

High-throughput results from PubChem.
